The source of these data is patent publication US9458172B2, “Pyridinyl and pyrimidinyl sulfoxide and sulfone derivatives” (priority 2012, dated 2016).

By UniProt entry, the sequences of proteins in these tests, tags left out. Where a name states a change or a piece, a line headed by the entry shows the natural chain unless it says otherwise.
UniProt P43490: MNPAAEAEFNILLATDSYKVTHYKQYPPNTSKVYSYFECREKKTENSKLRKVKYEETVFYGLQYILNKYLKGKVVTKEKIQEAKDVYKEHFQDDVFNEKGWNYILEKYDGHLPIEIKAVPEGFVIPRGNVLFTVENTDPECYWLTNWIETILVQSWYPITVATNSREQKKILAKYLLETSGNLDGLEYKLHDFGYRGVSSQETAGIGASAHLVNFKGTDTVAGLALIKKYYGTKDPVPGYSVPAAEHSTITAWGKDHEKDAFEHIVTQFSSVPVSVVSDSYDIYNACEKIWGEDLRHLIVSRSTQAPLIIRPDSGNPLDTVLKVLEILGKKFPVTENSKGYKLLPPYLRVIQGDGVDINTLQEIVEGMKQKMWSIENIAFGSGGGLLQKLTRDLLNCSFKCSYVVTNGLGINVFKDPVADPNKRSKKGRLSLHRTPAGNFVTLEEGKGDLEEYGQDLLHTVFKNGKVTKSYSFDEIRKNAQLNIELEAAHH

The IC50 is the concentration needed to halve the response being measured.

The experiment concerns the target NAMPT (Homo sapiens (Human), UniProt P43490). As to the kind of experiment: Biochemical Inhibition Assay (NAMPT enzymatic reaction, NMN quantified by mass spectrometry). The conditions noted are these: 33 nM recombinant His-tagged NAMPT, 1 μM NAM, 30 min at rt. On the procedure: Assay 1: Biochemical Inhibition Assay
NAMPT protein purification. Recombinant His-tagged NAMPT was produced in E. coli cells, purified over a Ni column, and further purified over a size-exclusion column by XTAL Biostructures.
The NAMPT Enzymatic Reaction. The NAMPT enzymatic reactions were carried out in Buffer A (50 mM Hepes pH 7.5, 50 mM NaCl, 5 mM MgCl2, and 1 mM THP) in 96-well V-bottom plates. The compound titrations were performed in a separate dilution plate by serially diluting the compounds in DMSO to make a 100× stock. […] The compound and enzyme mixture was incubated for 15 min at rt, then 10 μL of 10× substrate and co-factors in Buffer A were added to the test well to make a final concentration of 1 μM NAM, […] 5-Phospho-D-ribose 1-diphosphate (PRPP), and 2.5 mM Adenosine 5′-triphosphate (ATP). The reaction was allowed to proceed for 30 min at rt, then was quenched with the addition of 11 μL of a solution of formic acid and L-Cystathionine to make a final concentration of 1% formic acid and 10 μM L-Cystathionine. Background and signal strength was determined by addition (or non-addition) of a serial dilution of NMN to a pre-quenched enzyme and cofactor mix.
Quantification of NMN. A mass spectrometry-based assay was used to measure the NAMPT reaction product, β-nicotinamide mononucleotide (NMN), and the internal control (L-Cystathionine). NMN and L-Cystathionine were detected using the services of Biocius Lifesciences with the RapidFire system. In short, the NMN and L-Cystathionine were bound to a graphitic carbon cartridge in 0.1% formic acid, eluted in 30% acetonitrile buffer, and injected into a Sciex 4000 mass spectrometer. The components of the sample were ionized with electrospray ionization and the positive ions were detected. […] The fragments are quantified and the analyzed by the following method.
Determination of IC50 Values. First, the NMN signal was normalized to the L-Cystathionine signal by dividing the NMN signal by the L-Cystathionine signal for each well. The signal from the background wells were averaged and subtracted from the test plates.

Turning to `O=C(NCc1ccc(S(=O)(=O)C2CCN(C3COC3)CC2)cn1)c1cc2ccncc2o1` [Example 103, Furo[2,3-c]pyridine-2-carboxylic acid [5-(1-oxetan-3-yl-piperidine-4-sulfonyl)-pyridin-2-ylmethyl]-amide], the concentration for half-maximal inhibition (IC50) was 55.2 nM. In the case of `CCn1cc(S(=O)(=O)c2ccc(CNC(=O)c3cc4ccncc4o3)nc2)cn1` [Example 176, N-[[5-(l-ethylpyrazol-4-yl)sulfonyl-2-pyridyl]methyl]furo[2,3-c]pyridine-2-carboxamide], the IC50 was determined as 54.2 nM. Regarding `O=C(NCc1ccc(S(=O)(=O)c2ccc(N3CCOCC3)cc2)cn1)N1Cc2ccncc2C1` [Example 97, 1,3-Dihydro-pyrrolo[3,4-c]pyridine-2-carboxylic acid [5-(4-morpholin-4-yl-benzenesulfonyl)-pyridin-2-ylmethyl]-amide], the half-inhibitory concentration (IC50) was determined as 5.9 nM. With `CCCn1cc(S(=O)(=O)c2ccc(CNC(=O)N3Cc4ccncc4C3)nc2)cn1` [Example 140, N-[[5-(1-propylpyrazol-4-yl)sulfonyl-2-pyridyl]methyl]-1,3-dihydropyrrolo[3,4-c]pyridine-2-carboxamide], the 50% inhibitory concentration (IC50) stood at 11.8 nM. Consider `COc1cc(F)cc(S(=O)(=O)c2ccc(CNC(=O)c3cnc4[nH]ncc4c3)nc2)c1` [Example 144, N-[[5-(3-fluoro-5-methoxy-phenyl)sulfonyl-2-pyridyl]methyl]-1H-pyrazolo[3,4-b]pyridine-5-carboxamide], for which the IC50 stood at 26.2 nM. As for `O=C(NCc1ccc(S(=O)(=O)c2cccc(OC(F)(F)F)c2)cn1)c1cc2cnccc2[nH]1` [Example 21, 1H-Pyrrolo[3,2-c]pyridine-2-carboxylic acid [5-(3-trifluoromethoxy-benzenesulfonyl)-pyridin-2-ylmethyl]-amide], the figure is 11.8 nM; as for `O=C(NCc1ccc(S(=O)(=O)C2CCN(C3CCOCC3)CC2)cn1)c1cc2ccncc2o1` [Example 105, Furo[2,3-c]pyridine-2-carboxylic acid {5-[1-(tetrahydro-pyran-4-yl)-piperidine-4-sulfonyl]-pyridin-2-ylmethyl)-amide], 54.3 nM. Next, `O=C(NCc1ccc(S(=O)(=O)c2cccc(OC(F)(F)F)c2)cn1)c1cnc2[nH]ncc2c1` [Example 19, 1H-Pyrazolo[3,4-b]pyridine-5-carboxylic acid [5-(3-trifluoromethoxy-benzenesulfonyl)-pyridin-2-ylmethyl]-amide]: 53.7 nM.

On to `CCN(C)c1ncc(S(=O)(=O)c2ccc(CNC(=O)c3cc4ccncc4o3)nc2)s1` [Example 146, N-[[5-[2-[ethyl(methyl)amino]thiazol-5-yl]sulfonyl-2-pyridyl]methyl]furo[2,3-c]pyridine-2-carboxamide], for which the IC50 turned out to be 5.65 nM. With `O=C(NCc1ccc(S(=O)(=O)c2cc(F)cc(N3CCOCC3)c2)cn1)c1cc2ccncc2o1` [Example 88, Furo[2,3-c]pyridine-2-carboxylic acid [5-(3-fluoro-5-morpholin-4-yl-benzenesulfonyl)-pyridin-2-ylmethyl]-amide], the 50% inhibitory concentration (IC50) came to 5.9 nM.
